ChEMBL document CHEMBL5055672, “Design, Synthesis, Biological Evaluation, and Computational Studies of Novel Fluorinated Candidates as PI3K Inhibitors: Targeting Fluorophilic Binding Sites” (J Med Chem, 2021)

Protein sequences, listed by entry. Tags and fused reporters are not part of them. Lines headed by an entry give the natural chain unless they say otherwise; changes in a name come on top.
UniProt P42338: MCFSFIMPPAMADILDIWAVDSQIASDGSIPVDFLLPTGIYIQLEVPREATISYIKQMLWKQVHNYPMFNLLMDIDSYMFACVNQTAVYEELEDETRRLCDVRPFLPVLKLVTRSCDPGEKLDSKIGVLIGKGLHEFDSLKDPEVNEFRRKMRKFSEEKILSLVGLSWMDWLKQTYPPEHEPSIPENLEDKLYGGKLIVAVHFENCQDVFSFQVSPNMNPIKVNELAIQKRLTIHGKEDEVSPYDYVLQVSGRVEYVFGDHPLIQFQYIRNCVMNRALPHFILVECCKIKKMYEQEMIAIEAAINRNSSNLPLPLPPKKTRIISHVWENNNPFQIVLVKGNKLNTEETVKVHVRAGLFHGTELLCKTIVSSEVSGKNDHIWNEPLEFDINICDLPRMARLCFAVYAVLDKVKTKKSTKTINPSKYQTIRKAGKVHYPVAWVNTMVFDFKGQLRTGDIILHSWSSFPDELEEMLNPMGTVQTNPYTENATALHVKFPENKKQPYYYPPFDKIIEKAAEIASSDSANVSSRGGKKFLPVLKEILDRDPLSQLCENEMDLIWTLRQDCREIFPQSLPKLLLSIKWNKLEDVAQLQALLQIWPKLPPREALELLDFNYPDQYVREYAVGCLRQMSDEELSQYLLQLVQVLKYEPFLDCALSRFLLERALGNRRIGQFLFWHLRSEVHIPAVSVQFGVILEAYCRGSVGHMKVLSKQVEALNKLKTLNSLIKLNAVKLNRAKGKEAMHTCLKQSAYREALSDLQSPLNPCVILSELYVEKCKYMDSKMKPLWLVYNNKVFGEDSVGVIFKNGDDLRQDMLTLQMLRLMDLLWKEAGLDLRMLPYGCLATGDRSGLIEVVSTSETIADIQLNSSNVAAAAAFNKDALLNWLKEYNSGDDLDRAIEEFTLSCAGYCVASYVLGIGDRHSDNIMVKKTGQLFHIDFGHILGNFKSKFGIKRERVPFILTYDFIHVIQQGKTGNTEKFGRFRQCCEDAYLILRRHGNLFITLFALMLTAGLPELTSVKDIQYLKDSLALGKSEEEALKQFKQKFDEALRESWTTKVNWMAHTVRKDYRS

Target: Phosphatidylinositol 4,5-bisphosphate 3-kinase catalytic subunit beta isoform (Homo sapiens, UniProt P42338)
Assay: Inhibition of PI3Kbeta (unknown origin) using PIP2 as substrate preincubated for 10 mins followed by substrate addition and measured after 1 hr by ELISA

`O=c1cc(N2CCOCC2)oc2c(-c3ccccc3)cccc12` [LY-294002] showed an IC50 of 13.1 µM.
